Laboratory results published in US7071194B2, “Method for improving respiratory function and inhibiting muscular degeneration” (priority 2000, dated 2006).

Test system: T8 SCI rats
Assay: Respiratory function by head-out plethysmograph in conscious rats after T8 contusion SCI
Assay type: in vivo, rat
Details: 8-OH-DPAT 250 μg/kg i.p.
Procedure: Female Sprague-Dawley rats (250–280 g and 360–390 g; Taconic, Germantown, N.Y.) were anesthetized with 4% chloral hydrate (360 mg/kg, i.p.). An incomplete spinal courd contusion injury was produced at T8 with a weight drop device (10 g×2.5 cm) as previously described (Wrathall et al., 1985). After SCI, manual expression of bladders was performed twice daily until a reflex bladder was established. Animal care also included housing the rats in pairs to reduce isolation-induced stress, maintaining ambient temperature at 22–25° C., and using highly absorbent bedding. No prophylactic antibiotics were given.
Experiments were conducted in unanesthetized, awake, spontaneously breathing rats at 24 hours prior to SCI, at 24 hours p.i. and weekly afterwards at 1,2,3, and 4 weeks p.i. (1) Acclimatization of the Animals. […] Animals were placed in the body cylinder of the plethysmograph (FIG. 1a) for 60 minutes per day for at least 5 days. […] (2) Non-Invasive Measurements of Respiratory Rate, Tidal Volume and Minute Ventilation. Non-invasive measurements of respiratory function in conscious rats were performed with a restrained head-out plethysmograph specially designed for rodents (BUXCO Electronics, Inc., Sharon, Conn.) (FIG. 1a). The plethymograph apparatus has a neck seal that prevents leakage of air from between the animal's neck and the plethymograph opening. Displacement of the thoracic wall produced by the animal's respiratory movements causes changes in the cylinder pressure, which results in air flowing across a pneumotachograph located on the wall of the cylinder. The pressure drop across the pneumotachograph is measured with a pressure transducer and is proportional to the flow. This signal is amplified and integrated into volume. […]
Baseline respiratory function was measured under room air ventilation and after the animal was stabilized inside a boy cylinder (FIGS. 1a and b) for 30 minutes at each time point prior to SCI and after injury. […]

In the case of `CCCN(CCC)C1CCc2cccc(O)c2C1` (stereo not drawn) [8-OH-DPAT, 8-hydroxy-2-(di-n-propylamino)tetralin], the “impaired ventilatory response to 7% CO2” value (24 hours and 7 days after SCI) is reported as “normalized”, the “baseline Ve at 4 minutes post drug injection (FIG. 3)” value (24 hours p.i., n=3) is reported as “significantly improved” and the “ventilatory response to 7% CO2 at 5 hours after drug injection vs before treatment” value (24 hours p.i., time-course study) is reported as “slightly and not significantly higher”.
